# TDP1 cell noCPT = qHTS for Inhibitors of human tyrosyl-DNA phosphodiesterase 1 (TDP1): qHTS in cells in absence of CPT | DT40 Tdp1-/- hTDP1 cells, no CPT, ATP luminescence, 48 h | Potency, µM (series often up to 46.2 µM), most hits filed as inhibitors | 15% of 420,000 active | AID 686978, 2013; also: nearly all actives have a fitted effect of over 55% in size
#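 Camptothecin absent (DMSO only). Human TDP1-complemented DT40 knockout cells, 400 cells/well, 37 °C for minimum 48 hr; ATP measured via CellTiter-Glo, 30 min dark incubation, luminescence.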
# miR-21 reporter = miR-21 reporter, rising signal; Potency, µM (titrated, usually from 38.3 µM); AID 2288; 340,000 tested, under 10 active; HeLa miR-21 FLuc reporter, luciferase, 48 h; active = well fitted rising curve with a large enough effect; inconclusive = small, poorly fitted or top-dose-only effect; inactive = no such curve, though single readings can be large or run the other way;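 note: miR-21 action dims this reporter so a rising signal means less miR-21 action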
#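 Using DMEM plus 10% FBS, HeLa miR-21-FLuc cells are incubated with test compounds (final up to about 40uM) for 48 hours; firefly luciferase signal is then imaged following reagent-mediated lysis.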
# uPA surface inh = inhibitors of cell surface uPA generation. 0.31% of 330,000 active. AID 540303. cell surface uPA generation assay, qHTS. Potency, µM (titrated, usually from 38.3 µM), actives largely listed as inhibitors; active = well fitted inhibition curve with a large enough effect; inconclusive = small, poorly fitted or top-dose-only effect; inactive = no such curve, though single readings can be large or run the other way; tested in mouse RAW 264.7 cells; also: nearly all actives have a fitted effect of over 55% in size
# TDP1 inh = TDP1 (human) enzyme inhibition. recombinant TDP1, AlphaScreen DNA substrate cleavage. Potency, µM (top dose mostly 130 µM), hits mostly inhibitors. 0.28% of 350,000 active; also: nearly all actives have a fitted effect of over 40% in size
#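 E. coli-derived human Tdp1, 1 nM final. Cpd preinc 15 min RT; substrate 15 nM final, 5 min RT; AS bead mix 10 ug/ml final, 10 min RT. Signal loss = tyrosine-FITC cleavage. No-enzyme wells = max signal.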
# TDP1 cell CPT = DT40-hTDP1 cell growth loss with CPT | chicken DT40 Tdp1-/-;hTDP1 cells + 20 nM CPT, ATP luminescence, 48 h | Potency, µM (top dose mostly 46.2 µM), actives largely listed as inhibitors | 12% of 420,000 active | AID 686979; also: nearly all actives have a fitted effect of over 55% in size
#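 Cell growth measured by CellTiter-Glo luminescence after a minimum 48 h, 37 C compound exposure with 20 nM CPT in Tdp1-knockout DT40 cells stably expressing hTDP1, seeded 400/well; qHTS titration format.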
# Numbers stand for hits; i = inactive; ? = inconclusive; nt = not tested or not shown; [ ] = dose if it differs, or a comment. This is a sample that favours compounds with a hit; in the whole collection about 16% have one here. Unless noted, calls follow the shape of the dose curve; as a rule, active = well fitted curve in the direction sought with a large enough effect; inconclusive = small, poorly fitted or top-dose-only effect, or another doubt; inactive = no such curve, though single readings can be large; an effect the other way counts as inactive or inconclusive.
SMILES,TDP1 cell noCPT,miR-21 reporter,uPA surface inh,TDP1 inh,TDP1 cell CPT
COC(=O)c1ccc2c(c1)N(Cc1ccccc1)C(=O)c1ccccc1S2(=O)=O,?,i,nt,i,16µM
O=C(NCCc1ccc(Cl)cc1)c1ccc2c(c1)N(Cc1cccc(Cl)c1)C(=O)c1ccccc1S2(=O)=O,7.3µM,i,nt,i,?
CC(=O)Nc1ccc(NC(=O)c2ccc3c(c2)N(Cc2cccc(Cl)c2)C(=O)c2ccccc2S3(=O)=O)cc1,nt,i,nt,i,nt
O=C(Nc1ccc(Cl)cc1)c1ccc2c(c1)N(Cc1ccccc1)C(=O)c1ccccc1S2(=O)=O,23µM,i,nt,i,16µM
Cc1ccc(CCNC(=O)c2ccc3c(c2)N(Cc2cccc(C)c2)C(=O)c2ccccc2S3(=O)=O)cc1,i,i,nt,i,i
CC1(C)Cc2nc3sc4c(=O)n(CC(N)=O)cnc4c3cc2CO1,i,i,i,i,i
CC1(C)Cc2nc3sc4c(=O)n(CC(=O)NCc5ccccc5)cnc4c3cc2CO1,3.7µM,i,nt,i,4.6µM
Cc1nc2c(sc3nc4c(cc32)COC(C)(C)C4)c(=O)n1CC(=O)NCc1ccco1,4.1µM,i,nt,i,3.3µM
CC1(C)Cc2nc3sc4c(SCC(=O)NCc5ccco5)ncnc4c3cc2CO1,2.3µM,i,i,i,2.1µM
CC(c1nnc(SCC(=O)Nc2cccnc2Cl)n1Cc1ccccc1)N(C)C (stereo not given),i,i,i,i,i
Cc1ccc(S(=O)(=O)N2CCNC(=O)C2)c(C)c1,i,nt,i,i,i
COc1ccc(CNC(=O)C2CCCN(Cc3nc(-c4cccc(C)c4)oc3C)C2)cc1 (stereo not given),13µM,i,i,i,13µM
CCCCSCCCNC(=O)C1CCN(Cc2nc(-c3cccc(Br)c3)oc2C)CC1,?,i,nt,i,?
Cc1cccc(-c2nc(CN3CCCC(C(=O)NCc4ccc(Cl)cc4)C3)c(C)o2)c1 (stereo not given),7.3µM,i,nt,i,i
Cc1oc(-c2cccc(Br)c2)nc1CN1CCC(C(=O)NCc2ccccc2)CC1,?,i,nt,i,18µM
COc1ccc(-c2nc(CN3CCCC(C(=O)NC4CCCC4)C3)c(C)o2)cc1 (stereo not given),?,i,i,i,?
Cc1cc(S(=O)(=O)NC2CCN(Cc3ccccc3)CC2)c(C)cc1Cl,?,i,i,i,?
CC1(C)C2CCC1(CS(=O)(=O)Nc1cccc(S(N)(=O)=O)c1)C(=O)C2 (stereo not given),i,i,i,i,i
CC1=C(C(=O)OC2CCCCCC2)C(c2c(Cl)cccc2Cl)CC(=O)N1 (stereo not given),?,i,nt,i,?
COc1ccccc1C1CC(=O)NC(C)=C1C(=O)OCC(C)C (stereo not given),13µM,i,i,i,12µM
CC1=C(C(=O)OC2CCCC2)C(c2c(Cl)cccc2Cl)CC(=O)N1 (stereo not given),26µM,i,nt,i,?
CCOC(=O)C1=C(C)NC(=O)CC1c1ccccc1OC (stereo not given),i,i,i,i,i
CC1=C(C(=O)OC2CCCC2)C(c2ccccc2Cl)CC(=O)N1 (stereo not given),13µM,i,nt,i[12.3 µM],16µM
CC1=C(C(=O)OC2CCCC2)C(c2cccc(Cl)c2Cl)CC(=O)N1 (stereo not given),23µM,i,nt,i,?
CC1=C(C(=O)OC2CCCCCC2)C(c2cccc(F)c2F)CC(=O)N1 (stereo not given),?,i,nt,i,?
SMILES,TDP1 cell noCPT,miR-21 reporter,uPA surface inh,TDP1 inh,TDP1 cell CPT
CCOC(=O)c1cc(C#N)c(N2CCOCC2)nc1-c1ccccc1,?,i,i,i,i
CCOC(=O)c1cc(C#N)c(Oc2ccccc2)nc1-c1ccccc1,?,i,i,nt,?
CCCCNc1nc(-c2ccccc2)c(C(=O)OCC)cc1C#N,23µM,i,i,nt,?
C=CCNc1nc(-c2ccccc2)c(C(=O)OCC)cc1C#N,10µM,i,i,nt,?
CCCNc1nc(-c2ccccc2)c(C(=O)OCC)cc1C#N,2.9µM,i,i,nt,2.9µM
O=CN1CCN(CC(O)Cn2c3ccccc3c3ccccc32)CC1 (stereo not given),i,i,i,nt,i
Cc1ccc(NC(=S)c2ccc(N(C)C)cc2)cc1,i,i,i,i,i
COc1ccccc1-c1oc2ccccc2c1-c1ccc2c(c1)OCO2,?,nt,i,i,?
CCOc1ccccc1C1NC(c2ccc3c(c2)OCO3)=CC(c2ccccc2O)N1 (stereo not given),14µM,nt,nt,i,11µM
COc1ccc(Br)cc1C1NC(c2ccc3c(c2)OCO3)=CC(c2cc(Cl)ccc2O)N1 (stereo not given),nt,nt,nt,i,nt
Oc1ccc(Cl)cc1C1C=C(c2ccc3c(c2)OCO3)NC(c2cc(Br)ccc2F)N1 (stereo not given),nt,nt,nt,i,nt
COc1ccccc1C1NC(c2ccc3c(c2)OCO3)=CC(c2ccccc2O)N1 (stereo not given),10µM,nt,nt,i,11µM
COc1ccccc1C1NC(c2ccc3c(c2)OCO3)=CC(c2cc(Cl)ccc2O)N1 (stereo not given),4µM,nt,nt,i,7.9µM
Oc1ccc(Cl)cc1C1C=C(c2ccc3c(c2)OCO3)NC(c2ccc(Br)cc2)N1 (stereo not given),?,nt,nt,i,16µM
C=CCn1c(SCCC)nc2sc3c(c2c1=O)CCc1ccccc1-3,?,i,i,i,?
Cc1cc(NC(=O)CSc2nnc(-c3ccncc3)n2N)ccc1Br,i,i,i,i,i
FC(F)(F)c1cccc(N2CCc3cn[nH]c32)c1,?,i,i,i,i
COc1ccc(C2NC(c3ccc4c(c3)OCO4)=CC(c3ccccc3O)N2)cc1OC (stereo not given),18µM,nt,nt,i,13µM
COc1ccc(NC(=O)c2cc(-c3ccc4c(c3)OCO4)on2)cc1OC,i,i,i,i,i
Cc1cc(OC(=O)c2ccc(C(F)(F)F)cc2)c([N+](=O)[O-])c(=O)[nH]1,i,i,i,nt,i
O=C(Nc1ccc2c(c1)OCO2)O[C@@H]1C[C@H]2CCCC(=O)N3CC[C@@H](C1)[C@@H]23,i,i,i,nt,i
CC1(C)CCC(=O)N2CC[C@H]3C[C@H](OC(=O)Nc4ccc(Br)cc4)C[C@@H]1[C@H]32,?,i,i,nt,35µM
O=C(COC(=O)CCC(=O)c1ccc(Cl)cc1)NCCc1ccccc1,i,i,i,i,i
Cc1ccc(N2C(=O)C(CC(=O)Nc3ccc(F)cc3)N(Cc3ccc4c(c3)OCO4)C2=O)cc1 (stereo not given),16µM,?,nt,i,?
COc1ccc(N2C(=O)C(CC(=O)Nc3ccc(Cl)cc3)N(Cc3ccc4c(c3)OCO4)C2=O)cc1 (stereo not given),?,i,nt,i,?

# Screening data from PubChem BioAssay.
